From publication PMC3050021 (Cancer cell, 2010)

Molecular target: T1, full-length HDMX (Homo sapiens, UniProt O15151)
T1 sequence (O15151 1-490): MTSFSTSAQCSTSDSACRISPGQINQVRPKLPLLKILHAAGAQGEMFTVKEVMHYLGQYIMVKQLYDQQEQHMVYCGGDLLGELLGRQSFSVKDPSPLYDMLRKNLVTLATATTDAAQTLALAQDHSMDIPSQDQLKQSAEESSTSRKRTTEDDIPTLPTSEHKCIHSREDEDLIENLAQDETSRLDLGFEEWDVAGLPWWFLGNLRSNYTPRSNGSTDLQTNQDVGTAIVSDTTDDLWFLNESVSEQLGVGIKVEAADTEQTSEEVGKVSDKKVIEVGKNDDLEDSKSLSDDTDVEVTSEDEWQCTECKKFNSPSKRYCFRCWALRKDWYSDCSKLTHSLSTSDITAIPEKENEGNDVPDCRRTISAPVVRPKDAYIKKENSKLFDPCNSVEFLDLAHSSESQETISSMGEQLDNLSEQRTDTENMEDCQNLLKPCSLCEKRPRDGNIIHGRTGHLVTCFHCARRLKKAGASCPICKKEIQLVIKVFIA
Assay: FP direct binding of FITC-peptides to HDMX
Conditions: fluorescence polarization; FITC-peptide 25 nM, full-length HDMX 25 pM – 100 nM

HDMX interaction: no interaction in this dose range
Substance: FITC-wild-type p53_14–29: FITC-labeled derivative of wild-type p53_14–29
